ChEMBL document CHEMBL1129962, “Nonsteroidal anti-inflammatory drugs as scaffolds for the design of 5-lipoxygenase inhibitors” (J Med Chem, 1997)

Molecular target: T1, Polyunsaturated fatty acid 5-lipoxygenase (Rattus norvegicus, UniProt P12527)
T1 sequence (P12527 whole entry): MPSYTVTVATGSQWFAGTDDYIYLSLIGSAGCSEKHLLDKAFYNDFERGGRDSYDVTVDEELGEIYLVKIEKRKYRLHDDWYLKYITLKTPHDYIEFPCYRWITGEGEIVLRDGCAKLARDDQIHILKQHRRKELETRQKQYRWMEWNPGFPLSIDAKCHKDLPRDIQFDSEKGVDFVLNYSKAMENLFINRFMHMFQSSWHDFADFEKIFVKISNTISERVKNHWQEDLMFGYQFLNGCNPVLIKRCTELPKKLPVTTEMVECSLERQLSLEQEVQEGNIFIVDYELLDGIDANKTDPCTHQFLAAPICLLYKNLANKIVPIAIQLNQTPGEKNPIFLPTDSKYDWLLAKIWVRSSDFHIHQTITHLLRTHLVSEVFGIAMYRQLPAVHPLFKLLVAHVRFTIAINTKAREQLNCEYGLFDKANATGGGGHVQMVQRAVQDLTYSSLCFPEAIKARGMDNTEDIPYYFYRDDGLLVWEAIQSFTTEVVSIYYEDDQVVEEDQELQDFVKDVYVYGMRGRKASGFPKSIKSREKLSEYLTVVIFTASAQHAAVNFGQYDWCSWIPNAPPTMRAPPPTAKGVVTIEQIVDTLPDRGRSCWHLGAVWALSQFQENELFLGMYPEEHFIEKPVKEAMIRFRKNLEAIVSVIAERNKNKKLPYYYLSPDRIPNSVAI
Test: Inhibitory activity against 5-lipoxygenase catalysis (5-LO) in sonicated rat basophilic leukemia cell lysate
Type: functional

Row | IC50 [µM] | Structure (SMILES)
1 | 4.8 | COc1ccc2cc([C@H](C)NC(=O)NO)ccc2c1
2 | 17 | COc1ccc2cc([C@H](C)C(=O)O)ccc2c1 [NAPROXEN]
